The IC50 is the concentration that inhibits the measured activity by half. High values mean weaker potency in that assay, low ones greater potency in that assay.

Sequences of proteins named here, by UniProt entry; tags and fusion partners are left off. A line that says so, or that is headed by a name, gives the form on record, which may keep a tag or linker.
UniProt Q14524, other isoform, or with tags, fused parts or gaps: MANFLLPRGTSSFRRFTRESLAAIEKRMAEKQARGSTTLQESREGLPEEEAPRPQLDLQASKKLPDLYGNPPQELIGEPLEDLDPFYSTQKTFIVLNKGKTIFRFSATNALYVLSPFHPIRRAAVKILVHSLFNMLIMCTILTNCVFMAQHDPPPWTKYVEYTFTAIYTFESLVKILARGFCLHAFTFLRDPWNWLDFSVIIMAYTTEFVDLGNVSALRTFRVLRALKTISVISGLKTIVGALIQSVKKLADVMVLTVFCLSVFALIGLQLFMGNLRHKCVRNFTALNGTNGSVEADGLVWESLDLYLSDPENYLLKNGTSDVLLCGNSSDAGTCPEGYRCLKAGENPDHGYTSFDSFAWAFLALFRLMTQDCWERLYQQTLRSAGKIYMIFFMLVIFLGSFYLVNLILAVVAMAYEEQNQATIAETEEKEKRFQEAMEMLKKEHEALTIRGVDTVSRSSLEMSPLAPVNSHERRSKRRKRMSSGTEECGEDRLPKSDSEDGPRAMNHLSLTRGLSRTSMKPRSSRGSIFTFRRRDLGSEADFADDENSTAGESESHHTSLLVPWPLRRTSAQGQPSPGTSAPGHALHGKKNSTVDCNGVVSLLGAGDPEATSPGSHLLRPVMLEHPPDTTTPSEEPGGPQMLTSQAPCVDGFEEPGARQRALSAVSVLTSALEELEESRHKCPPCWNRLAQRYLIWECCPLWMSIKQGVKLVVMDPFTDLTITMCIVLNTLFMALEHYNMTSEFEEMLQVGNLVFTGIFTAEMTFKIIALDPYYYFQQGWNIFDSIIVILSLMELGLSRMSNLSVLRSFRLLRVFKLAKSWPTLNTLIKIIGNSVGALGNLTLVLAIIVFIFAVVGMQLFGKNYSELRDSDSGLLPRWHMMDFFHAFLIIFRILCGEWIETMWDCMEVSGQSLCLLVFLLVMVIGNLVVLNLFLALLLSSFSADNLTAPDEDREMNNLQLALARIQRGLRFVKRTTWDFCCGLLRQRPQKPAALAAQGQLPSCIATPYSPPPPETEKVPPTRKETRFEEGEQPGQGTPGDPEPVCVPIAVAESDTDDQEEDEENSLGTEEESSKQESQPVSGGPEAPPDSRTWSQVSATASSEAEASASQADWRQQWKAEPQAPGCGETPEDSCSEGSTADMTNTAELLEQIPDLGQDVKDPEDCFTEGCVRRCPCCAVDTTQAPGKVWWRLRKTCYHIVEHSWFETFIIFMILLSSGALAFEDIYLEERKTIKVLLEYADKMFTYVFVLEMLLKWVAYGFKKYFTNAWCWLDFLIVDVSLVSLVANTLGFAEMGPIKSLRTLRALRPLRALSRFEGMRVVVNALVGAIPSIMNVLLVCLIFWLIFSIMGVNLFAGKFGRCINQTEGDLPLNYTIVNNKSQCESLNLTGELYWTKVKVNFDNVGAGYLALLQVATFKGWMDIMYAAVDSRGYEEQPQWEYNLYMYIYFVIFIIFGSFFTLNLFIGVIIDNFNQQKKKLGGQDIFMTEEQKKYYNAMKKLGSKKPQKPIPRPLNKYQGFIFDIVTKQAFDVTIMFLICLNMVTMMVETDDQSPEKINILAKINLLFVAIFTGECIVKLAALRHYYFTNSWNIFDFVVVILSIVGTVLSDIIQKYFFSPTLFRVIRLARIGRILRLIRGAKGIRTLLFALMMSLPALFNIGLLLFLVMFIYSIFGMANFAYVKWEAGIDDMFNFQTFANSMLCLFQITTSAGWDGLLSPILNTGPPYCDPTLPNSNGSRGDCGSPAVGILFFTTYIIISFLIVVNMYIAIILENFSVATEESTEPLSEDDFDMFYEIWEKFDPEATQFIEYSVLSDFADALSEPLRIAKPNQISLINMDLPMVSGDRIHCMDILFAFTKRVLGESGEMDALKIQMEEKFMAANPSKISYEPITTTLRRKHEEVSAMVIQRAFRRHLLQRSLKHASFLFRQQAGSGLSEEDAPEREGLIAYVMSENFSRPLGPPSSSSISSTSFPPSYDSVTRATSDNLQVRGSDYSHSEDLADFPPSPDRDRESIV

For this experiment, the target named is human NaV1.5 (Homo sapiens (Human), UniProt Q14524). In words: cell-based.

Regarding `Cc1cccc(CN2CC[C@H](Oc3ccc(S(=O)(=O)Nc4nccs4)cc3Cl)[C@H](C)C2)c1` (relative stereo) [Example 9A, 3-chloro-4-((cis-3-methyl-1-(3-methylbenzyl)piperidin-4-yl)oxy)-N-(thiazol-2-yl)benzenesulfonamide], 5.92 µM corresponded to half-maximal inhibition (IC50).

These data come from US10662184B2, “Benzenesulfonamide compounds and their use as therapeutic agents” (Xenon Pharmaceuticals Inc., priority 2016, dated 2020).
